Literature values, collected in patent US7276339B2 (H. Lundbeck A/S, priority 1998, dated 2007).

Tested on: NPFF receptors
Conditions: 10 μM; cited from earlier work

Structure (SMILES): CC(C)C[C@H](NC(=O)CNC(=O)[C@H](C)NC(=O)[C@H](CC(C)C)NC(=O)[C@H](CCCNC(=N)N)NC(=O)[C@H](Cc1c[nH]cn1)NC(=O)[C@@H](NC(=O)[C@@H](NC(=O)[C@@H]1CSSC[C@H](NC(=O)[C@H](C)N)C(=O)N[C@@H](CC(=O)O)C(=O)N[C@@H]([C@@H](C)O)C(=O)N[C@@H](C)C(=O)N[C@@H]([C@@H](C)O)C(=O)N1)C(C)C)[C@@H](C)O)C(=O)N[C@@H](CC(C)C)C(=O)N[C@@H](CO)C(=O)N[C@@H](CCCNC(=N)N)C(=O)N[C@@H](CO)C(=O)NCC(=O)NCC(=O)N[C@H](C(=O)N[C@H](C(=O)N[C@@H](CCCCN)C(=O)N[C@@H](CC(N)=O)C(=O)N[C@@H](CC(N)=O)C(=O)N[C@@H](Cc1ccccc1)C(=O)N[C@H](C(=O)N1CCC[C@H]1C(=O)N[C@H](C(=O)N[C@@H](CC(N)=O)C(=O)N[C@H](C(=O)NCC(=O)N[C@@H](CO)C(=O)N[C@@H](CCCCN)C(=O)N[C@@H](C)C(=O)N[C@@H](Cc1ccccc1)C(N)=O)C(C)C)[C@@H](C)O)C(C)C)C(C)C)C(C)C [CGRP]
- inhibition of [125I](1DMe)Y8Fa binding: No inhibition
